{"sequences": {"note": "The chains behind the UniProt entries cited, without tags or fusion partners.", "UniProt P35372, whole entry": "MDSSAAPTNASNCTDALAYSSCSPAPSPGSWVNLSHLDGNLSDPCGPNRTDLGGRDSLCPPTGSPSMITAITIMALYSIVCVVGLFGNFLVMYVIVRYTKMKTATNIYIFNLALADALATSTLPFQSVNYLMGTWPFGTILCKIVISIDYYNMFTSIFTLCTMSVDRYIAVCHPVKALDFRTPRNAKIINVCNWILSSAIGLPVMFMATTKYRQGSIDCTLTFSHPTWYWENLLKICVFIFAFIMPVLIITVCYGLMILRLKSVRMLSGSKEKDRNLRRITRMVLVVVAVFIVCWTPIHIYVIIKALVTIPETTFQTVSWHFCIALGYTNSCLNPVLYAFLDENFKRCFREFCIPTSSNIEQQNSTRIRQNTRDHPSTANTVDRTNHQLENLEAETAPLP"}, "source": "paper PMC7248707", "about": "(Molecules, 2020)", "key": {"[1]": {"conditions": "cited from earlier work"}, "human MOR [2]": {"target": "T1, human MOR (Homo sapiens, UniProt P35372)", "conditions": "relative to DALDA"}, "human MOR [3]": {"target": "T1, human MOR", "assay": "biochemical"}, "human MOR [4]": {"target": "T1, human MOR"}, "human MOR [5]": {"target": "T1, human MOR", "assay": "biochemical", "remark": "listed apart in the source"}}}
{"molecule": "Cc1cc(O)cc(C)c1C[C@H](N)C(=O)N[C@H](CCCNC(=N)N)C(=O)N[C@@H](Cc1ccccc1)C(=O)N[C@@H](CCCCN)C(N)=O", "note": "[[Dmt^1]DALDA, H-Dmt-D-Arg-Phe-Lys-NH2]", "values": [{"measurement": "BBB crossing / CNS entry", "setting": "[1]", "value": "can enter the CNS"}, {"measurement": "increase in binding affinity to the human MOR versus DALDA", "setting": "human MOR [2]", "value": 27, "unit": "fold"}, {"measurement": "EC50", "setting": "human MOR [3]", "value": "0.51 ± 0.06", "unit": "nM"}, {"measurement": "higher agonist potency than DAMGO", "setting": "human MOR [4]", "value": 35, "unit": "fold"}, {"measurement": "increase in agonist potency versus DALDA", "setting": "human MOR [4]", "value": 292, "unit": "fold"}, {"measurement": "Ki", "setting": "human MOR [5]", "value": "0.23 ± 0.02", "unit": "nM"}]}
